{
  "source": "patent US10836792B2",
  "about": "“Retro-inverso peptide inhibitors of cell migration, extracellular matrix and endothelial invasion by tumor cells” (ISTITUTO NAZIONALE TUMORI IRCCS “FONDAZIONE G. PASCALE”, priority 2016, dated 2020)",
  "key": {"[1]": {"target": "T1, FPR1 (Homo sapiens, UniProt P21462)", "T1 construct": "expressed in transfected cells; host or cells: rat basophilic leukaemia RBL-2H3/ETFR cells", "T1 sequence (P21462 1-350)": "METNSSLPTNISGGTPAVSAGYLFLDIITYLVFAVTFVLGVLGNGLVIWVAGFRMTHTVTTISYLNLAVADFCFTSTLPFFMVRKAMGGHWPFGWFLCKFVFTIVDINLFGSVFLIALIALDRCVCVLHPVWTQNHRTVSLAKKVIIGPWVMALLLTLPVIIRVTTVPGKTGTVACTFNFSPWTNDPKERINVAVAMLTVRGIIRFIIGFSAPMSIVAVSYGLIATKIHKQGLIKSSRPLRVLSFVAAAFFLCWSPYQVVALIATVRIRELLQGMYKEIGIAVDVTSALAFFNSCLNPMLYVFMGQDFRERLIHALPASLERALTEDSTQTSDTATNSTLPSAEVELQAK", "assay": "Competition with FITC-fMLF binding to RBL-2H3/ETFR cells stably expressing FPR1", "settings": "100 nM pre-incubation 60 min at 4° C., then 10 nM FITC-fMLF", "method": "(§1) FIG. 3 The retro-inverso peptide RI-3 competes with fMLF for binding to FPR1 (A) and inhibits fMLF-triggered FPR1 internalization (B) in rat basophilic leukaemia RBL-2H3/ETFR cells (Example 3).\n(§2) To test whether new generated peptides affect agonist-induced FPR1 activation, rat basophilic leukaemia RBL-2H3/ETFR cells stably expressing FPR1 [24], were pre-incubated with diluents, (None), 100 nM fMLF, or 100 nM RI-3 for 60 min at 4° C. (to avoid FPR1 internalization), and then exposed to 10 nM N-Formyl-Nle-Leu-Phe-Nle-Tyr-Lys-fluorescein (FITC-fMLF) for 60 min at 4° C. Cell-associated fluorescence was measured using a fluorescence plate reader. The results are depicted in FIG. 3. Data, expressed as a percentage of the fluorescence associated to cells exposed to FITC-fMLF alone (None=100%), represent mean±SD from an experiment performed in triplicate. *Statistical significance was calculated against None with p<0.001. […] To evaluate the effect of RI-3 on agonist-dependent FPR1 internalization, binding experiments were performed at 37° C. and cells were visualized using a Zeiss 510 Meta LSM microscope. Original magnifications: 630×. Scale bar: 10 μm. Upon exposure of RBL-2H3/ETFR cells to FITC-fMLF (None), FPR1 appeared mainly internalized as indicated by green fluorescent intra-cytoplasmic spots (arrow) which were prevented by cell pre-incubation with an excess fMLF, as expected. […]"}, "[2]": {"target": "T1, FPR1", "assay": "Agonist-dependent FPR1 internalization in RBL-2H3/ETFR cells (microscopy)", "format": "cell-based", "settings": "binding experiments at 37° C., FITC-fMLF", "method": "as §1, §2"}},
  "data": [
    {"substance": "N-formyl-methionyl-leucyl-phenylalanine peptide [fMLF, reference compound]", "values": [
      {"measurement": "inhibition of binding of fluorescent agonist (FITC-fMLF) to RBL-2H3/ETFR cells", "setting": "[1]", "value": "strongly reduced"},
      {"measurement": "agonist-dependent FPR1 internalization", "setting": "[2]", "value": "prevented"}
    ]}
  ]
}
